The test has as its target μ-opioid receptor (MOR) (Homo sapiens, UniProt P35372). The test is described as follows: Radioligand binding at MOR against [3H]DAMGO.

The chains behind the UniProt entries cited, without tags or fusion partners.
UniProt P35372, whole entry, species assumed: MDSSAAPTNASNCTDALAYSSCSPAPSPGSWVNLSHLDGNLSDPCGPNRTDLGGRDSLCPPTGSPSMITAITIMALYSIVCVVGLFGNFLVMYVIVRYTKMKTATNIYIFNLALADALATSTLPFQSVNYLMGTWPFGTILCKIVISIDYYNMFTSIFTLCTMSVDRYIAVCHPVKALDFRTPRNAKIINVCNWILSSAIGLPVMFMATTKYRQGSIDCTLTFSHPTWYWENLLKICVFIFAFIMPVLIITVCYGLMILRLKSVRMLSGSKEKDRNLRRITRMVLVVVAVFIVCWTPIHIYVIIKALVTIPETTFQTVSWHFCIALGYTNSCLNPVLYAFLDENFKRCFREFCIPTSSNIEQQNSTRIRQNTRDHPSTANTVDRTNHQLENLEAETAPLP

Each structure is given as a SMILES string.

With `COC(=O)[C@@H]1C[C@H](OC(=O)/C=C/c2cc(OC)c(OC)c(OC)c2)C(=O)[C@H]2[C@@]1(C)CC[C@H]1C(=O)O[C@H](c3ccoc3)C[C@]21C` [5f, 2-O-(3″,4″,5″-Trimethoxycinnamoyl)salvinorin B], the “affinity for MOR (in words)” value is on record as “no appreciable affinity”.

As to `COC(=O)[C@@H]1C[C@H](OC(=O)/C=C/c2ccccc2)C(=O)[C@H]2[C@@]1(C)CC[C@H]1C(=O)O[C@H](c3ccoc3)C[C@]21C` [5a, 2-O-Cinnamoylsalvinorin B], the “fold increased MOR affinity compared to 4a” value (vs 4a) is given as 18 fold.
